Measured values published in paper PMC7613639, “Broad-spectrum chemicals block ROS detoxification to prevent plant fungal invasion” (Current biology : CB, 2022).

Amino acid sequences for entries named in this document (tags omitted).
UniProt A0A384J7A0, entry or part of it: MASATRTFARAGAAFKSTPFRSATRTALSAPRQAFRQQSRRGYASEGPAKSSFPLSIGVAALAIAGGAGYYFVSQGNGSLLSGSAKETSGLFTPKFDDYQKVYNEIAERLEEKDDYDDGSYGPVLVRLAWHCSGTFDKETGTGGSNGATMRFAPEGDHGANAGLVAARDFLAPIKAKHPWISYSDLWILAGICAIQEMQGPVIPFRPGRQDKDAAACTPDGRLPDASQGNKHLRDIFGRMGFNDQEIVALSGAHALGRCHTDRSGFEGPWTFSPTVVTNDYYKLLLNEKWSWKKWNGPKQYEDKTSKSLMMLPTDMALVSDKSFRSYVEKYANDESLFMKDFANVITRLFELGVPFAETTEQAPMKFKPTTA

Biological target: T1, BcCcp1-His6 (Botrytis cinerea, UniProt A0A384J7A0)
T1 construct: putative catalytic H131
Experiment: peroxidase assay, absorbance at […] nm
Type: biochemical
Settings: 20 mM ABTS, 50 mM sodium acetate pH 5.0, 25 °C, 5 min

For CCn1c(=NN=c2sc3cc(S(=O)(=O)O)ccc3n2CC)sc2cc(S(=O)(=O)O)ccc21 [ABTS], the “peroxidase assay, absorbance at 420 nm” value was “His-tagged BcCcp1 purified from Escherichia coli indeed had peroxidase activity”.
